US20160129155A1, “MUSCULOSKELETAL TISSUE FABRICATION” (University of Pittsburgh - Of the Commonwealth System of …, priority 2014, published 2016)

How the values were obtained:
[1] = test system: hBMSCs; experiment: In vitro osteogenesis of hBMSC-laden VL-PSL gelatin constructs (BMP-2 ELISA, ALP, osteocalcin IHC); assay type: cell-based, human; details: in vitro culture, day 56
Experimental: Scaffold 16 fabrication using VL-PSL can be carried out using lithium phenyl-2,4,6-trimethyl benzoylphosphinate (LAP) as a photoinitiator. Alkaline phosphatase (ALP) staining (Sigma) and osteocalcin immunohistochemistry (IHC) analysis can be performed.
(§1) Scaffold fabrication using VL-PSL was carried out as described herein. ALP staining and osteocalcin immunohistochemistry (IHC) analysis were performed. To test in vivo bone formation, the bioactive scaffolds (2 groups) were individually implanted intramuscularly in both hind limbs in 2 month-old SCID/J mice. Ectopic bone formation was monitored biweekly using micro-CT.

[2] = test system: SCID/J mice; experiment: Intramuscular implantation, ectopic bone formation; assay type: in vivo, mouse; details: 14, 28 (and 56) days post intramuscular implantation
Experimental: To test in vivo bone formation, the bioactive scaffolds (2 groups) were individually implanted intramuscularly in both hind limbs in 2 month-old SCID/J mice. Ectopic bone formation was monitored biweekly using micro-computed tomography (micro-CT). Three-point bending tests were performed on the implants to estimate mechanical property of implants.
as §1

bone morphogenetic protein-2 [BMP-2 protein]
ALP staining, osteocalcin immunostaining and osteogenesis [1]: inferior and poor | micro-CT mineralized areas (ectopic bone) [2]: not seen
